Assay results published in ChEMBL document CHEMBL1134497, “Soluble 2-substituted aminopyrido[2,3-d]pyrimidin-7-yl ureas. Structure-activity relationships against selected tyrosine kinases and exploration of in vitro and in vivo anticancer activity” (J Med Chem, 2001).

By UniProt entry, the sequences of proteins in these tests, tags left out. Where a name states a change or a piece, a line headed by the entry shows the natural chain unless it says otherwise.
UniProt P11362, whole entry: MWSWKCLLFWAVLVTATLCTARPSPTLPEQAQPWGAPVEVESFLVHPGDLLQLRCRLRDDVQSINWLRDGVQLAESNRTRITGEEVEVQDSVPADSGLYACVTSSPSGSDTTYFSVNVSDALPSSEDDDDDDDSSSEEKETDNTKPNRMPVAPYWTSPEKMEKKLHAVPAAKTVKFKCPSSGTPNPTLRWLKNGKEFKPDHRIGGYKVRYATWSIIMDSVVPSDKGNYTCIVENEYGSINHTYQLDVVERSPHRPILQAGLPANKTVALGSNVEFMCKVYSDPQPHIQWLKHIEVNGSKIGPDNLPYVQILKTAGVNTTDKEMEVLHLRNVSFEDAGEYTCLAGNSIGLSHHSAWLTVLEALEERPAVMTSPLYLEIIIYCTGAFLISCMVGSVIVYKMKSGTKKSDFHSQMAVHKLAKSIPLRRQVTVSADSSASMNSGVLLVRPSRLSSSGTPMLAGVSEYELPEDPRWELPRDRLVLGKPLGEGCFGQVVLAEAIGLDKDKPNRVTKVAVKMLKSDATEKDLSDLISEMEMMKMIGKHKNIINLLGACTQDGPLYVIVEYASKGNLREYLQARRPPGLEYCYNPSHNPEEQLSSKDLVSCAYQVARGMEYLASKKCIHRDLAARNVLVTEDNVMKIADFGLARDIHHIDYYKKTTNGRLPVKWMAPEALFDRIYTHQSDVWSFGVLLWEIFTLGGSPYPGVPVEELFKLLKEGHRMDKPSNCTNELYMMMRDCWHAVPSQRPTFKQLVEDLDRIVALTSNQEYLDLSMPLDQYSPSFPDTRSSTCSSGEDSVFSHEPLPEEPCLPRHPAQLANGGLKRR
UniProt P05622: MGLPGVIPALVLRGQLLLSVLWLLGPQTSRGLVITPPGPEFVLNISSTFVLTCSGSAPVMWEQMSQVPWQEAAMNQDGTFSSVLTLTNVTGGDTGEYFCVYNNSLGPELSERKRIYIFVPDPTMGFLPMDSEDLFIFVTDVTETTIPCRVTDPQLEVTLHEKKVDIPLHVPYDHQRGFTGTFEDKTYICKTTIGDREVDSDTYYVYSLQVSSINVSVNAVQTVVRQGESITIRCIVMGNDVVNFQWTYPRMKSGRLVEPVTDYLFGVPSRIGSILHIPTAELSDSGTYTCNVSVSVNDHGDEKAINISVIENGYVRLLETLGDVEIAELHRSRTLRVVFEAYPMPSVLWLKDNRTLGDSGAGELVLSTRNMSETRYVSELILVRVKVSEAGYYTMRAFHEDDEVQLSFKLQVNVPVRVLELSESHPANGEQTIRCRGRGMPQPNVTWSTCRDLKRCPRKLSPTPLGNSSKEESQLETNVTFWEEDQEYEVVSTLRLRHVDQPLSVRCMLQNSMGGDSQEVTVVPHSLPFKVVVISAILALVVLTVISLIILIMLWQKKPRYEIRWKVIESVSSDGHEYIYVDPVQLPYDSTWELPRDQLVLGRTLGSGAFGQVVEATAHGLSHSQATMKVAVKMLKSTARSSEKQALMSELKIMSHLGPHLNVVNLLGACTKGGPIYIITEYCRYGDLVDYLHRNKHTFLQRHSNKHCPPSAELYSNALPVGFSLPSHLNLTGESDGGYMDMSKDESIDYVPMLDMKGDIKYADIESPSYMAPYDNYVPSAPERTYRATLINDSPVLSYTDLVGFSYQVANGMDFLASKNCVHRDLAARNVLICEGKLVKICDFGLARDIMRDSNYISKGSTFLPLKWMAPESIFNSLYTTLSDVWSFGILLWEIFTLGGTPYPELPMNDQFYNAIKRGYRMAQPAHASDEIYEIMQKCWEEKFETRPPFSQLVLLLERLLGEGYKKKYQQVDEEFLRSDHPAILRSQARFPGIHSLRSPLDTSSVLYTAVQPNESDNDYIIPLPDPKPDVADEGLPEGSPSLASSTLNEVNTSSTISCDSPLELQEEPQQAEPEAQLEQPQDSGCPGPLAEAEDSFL

Columns and labels:
[1] = target: Fibroblast growth factor receptor 1 (Homo sapiens, UniProt P11362)
[2] = target: Platelet-derived growth factor receptor beta (Mus musculus, UniProt P05622)

IC50 [1] [nM]	SMILES	IC50 [2] [nM]
74	COc1ccc(NC(=O)Nc2nc3nc(NCCCN4CCN(C)CC4)ncc3cc2-c2c(Cl)cccc2Cl)cc1	680
–	CN1CCN(CCCNc2ncc3cc(-c4c(Cl)cccc4Cl)c(NC(=O)NC4CCCCC4)nc3n2)CC1	370
–	CN1CCN(CCCNc2ncc3cc(-c4c(Cl)cccc4Cl)c(NC(=O)NCc4ccccc4)nc3n2)CC1	2500
